A short description of the series: Population PK model from satellite PK studies in hamster. The conditions noted are these: hamster of the study's median weight (80-131 g).

In the case of ivermectin, the “VC/F, central volume of distribution, population estimate (%RSE)” value is reported as 543 (5.48) mL.
